# Most compounds without a hit are left out; they make up all but 2.1% or so of the library.
# NR1D1 modulator: modulators of Rev-erb alpha DNA binding, primary screen, biochemical, FITC-DNA, fluorescence polarization, uHTS | Rev-erbα–FITC-DNA binding, 90 min | Nuclear receptor subfamily 1 group D member 1 (Homo sapiens), P20393 | 370,000 compounds, 0.79% hits | activity, % at 10 µM;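 active = activity above about 14%, limit read from the data; passing the limit was not always enough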;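 also: 0% = DMSO wells with 35 nM protein and 100% = DMSO wells with 750 nM protein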
# SMARCA2 activ: SMARCA2 (BRM) function activators, primary screen, cell-based, luminescence, high throughput; 370,000 compounds, 1% hits; MG213 cells, MMTV-luciferase reporter, dexamethasone, overnight; activation, % at 9.1 µM; in the data active = activation above about 7.8%;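 also: 0% = vehicle wells and 100% = reference activator wells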
# PDI turbidity: inhibitors of human PDI, primary screen, biochemical, turbidity, single point, plate reader | Protein disulfide-isomerase (Homo sapiens), P07237 | PDI insulin aggregation turbidity, A650, 90 min | inhibition, % at 10 µM | 350,000 compounds, 0.052% hits;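 active = mean inhibition across replicates of 30% or more, whatever share of single replicates reach that level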
# ERp5 inh: inhibitors of ERp5-driven insulin aggregation, primary screen, biochemical, turbidity, absorbance 650 nm, single point | Protein disulfide-isomerase A6 (Homo sapiens), Q15084 | 90 min | inhibition, % at 9.99 µM | 350,000 compounds, 0.05% hits | AID 651711, 2012;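 active = mean replicate inhibition above about 25%, with every replicate also reaching it, limit read from the data, passing the limit was not always enough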
# Yeast UUG start: modulators of start codon recognition fidelity in yeast; S. cerevisiae UUG-firefly luciferase reporter, luminescence/redox ratio; AID 602363; 350,000 tested, 0.13% active; activity score, % at 18.7 µM;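 active = replicate mean at a twofold rise or more, about +100% in these data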;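 also: firefly luciferase made from a UUG start codon reports start codon fidelity; reporter light over untreated wells divided by growth signal over untreated wells; some hits fall short of that in this replicate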
# INS-1E GSIS act: GLuc luminescence reporter in INS-1E cells, primary screen for activators of glucose-dependent secretion of insulin | INS-1E GLuc reporter insulin secretion, 2-3 h | activation, % at 16.6 µM | 370,000 compounds, 0.61% hits | AID 743287, 2014;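 active = lowest replicate activation of at least 40%, so every replicate reaches that level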;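 also: 0% = median of neutral control wells and 100% = median of IBMX positive control wells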
# SMARCA2 act conf: SMARCA2 (BRM) function activators, confirmation, cell-based, luminescence, triplicate. MG213 cells, MMTV-luciferase with dexamethasone, overnight; MG213 cells expressing E1A, Rb sequestered; DMSO wells 0%, reference activator 100%. shares compounds with SMARCA2 activ. 3,500 compounds, 30% hits. activation, % at 9.1 µM;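 active = activation above its plate's cutoff, the mean activation of tested wells plus 3 SD, cut at about 7.9% in these data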
# VP16 Luc act: GAL4-VP16 luciferase reporter activation, counter-screen for SMARCA2 (BRM) activator project, cell-based, pG5luc, luminescence, high throughput | HEK293 GAL4-VP16 pG5luc reporter; scaled: DMSO wells 0%, SAHA wells 100% | shares compounds with SMARCA2 activ | 3,500 compounds, 41% hits | AID 686939, 2013 | activation, % at 9.1 µM;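 active = activation above the solvent-only control well mean plus 3 SD, averaged across control plates, cut at about 5.2% in these data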
# Starred values were filed as active, the others as inactive; . = not tested or not shown.
cpd	Compound	NR1D1 modulator	SMARCA2 activ	PDI turbidity	ERp5 inh	Yeast UUG start	INS-1E GSIS act	SMARCA2 act conf	VP16 Luc act
1	C[C@@H]1CN([C@@H](C)CO)C(=O)c2cc(NC(=O)NC3CCCCC3)ccc2O[C@@H](C)CCCCO[C@@H]1CN(C)S(=O)(=O)c1cn(C)cn1	.	.	.	0.4	32.2	12.9	.	.
2	CCc1ccc(C(=O)Nc2cccc(-c3nn[nH]n3)c2)s1	-0.6	9.2*	-2.3	-5.3	-14.8	-4.7	-1.3	1.6
3	Cc1noc(C)c1NC(=O)Nc1ccc2c(c1)C(=O)N([C@H](C)CO)C[C@H](C)[C@H](CN(C)C(=O)Nc1ccc3c(c1)OCO3)OCCCC[C@H](C)O2	.	.	.	-7.9	-5.4	-5.9	.	.
4	COc1ccc(C(=O)N2C(=S)NC(=O)/C2=C\c2ccc(C)cc2)cc1	-4.2	12.7*	-9.2	2.9	.	-83.7	-1.6	1.5
5	COc1ccc(/C=C2/CCc3ccccc3C2=O)cc1CN1CCOCC1	1.7	8.0*	0.1	.	-24.9	8.6	4.3	2.0
6	COCCNC(=O)C[C@@H]1C[C@@H]2c3cc(NC(=O)COC)ccc3O[C@@H]2[C@H](CO)O1	.	.	.	6.5	-17.0	10.4	.	.
7	O=C(NCCc1ccccc1)c1cnc2sccn2c1=O	-1.8	9.6*	-11.1	6.7	-26.3	-22.8	8.3*	9.4*
8	C[C@H](NS(=O)(=O)c1ccc2c(c1)OCCCO2)C(=O)N1CCN(Cc2ccc(C#N)cc2)CC1	-9.3	8.8*	-1.2	4.1	-5.7	18.6	-3.6	1.4
9	Cc1cc(C(=O)CN2C(=O)NC3(CCCC3)C2=O)c(C)n1-c1ccc2c(c1)OCO2	-2.8	9.4*	-4.5	.	9.3	4.0	-2.3	1.7
10	Cc1cc(C(=O)CN2C(=O)NC(C)(CC(C)C)C2=O)c(C)n1-c1ccc2c(c1)OCO2 (stereo not drawn)	4.9	-4.8	-4.4	8.6	-8.4	.	.	.

# By substructure, the compounds so far containing an aryl methoxy group.
cpd	Compound	NR1D1 modulator	SMARCA2 activ	PDI turbidity	ERp5 inh	Yeast UUG start	INS-1E GSIS act	SMARCA2 act conf	VP16 Luc act
4	COc1ccc(C(=O)N2C(=S)NC(=O)/C2=C\c2ccc(C)cc2)cc1	-4.2	12.7*	-9.2	2.9	.	-83.7	-1.6	1.5
5	COc1ccc(/C=C2/CCc3ccccc3C2=O)cc1CN1CCOCC1	1.7	8.0*	0.1	.	-24.9	8.6	4.3	2.0

# (more compounds)
cpd	Compound	NR1D1 modulator	SMARCA2 activ	PDI turbidity	ERp5 inh	Yeast UUG start	INS-1E GSIS act	SMARCA2 act conf	VP16 Luc act
11	CS(=O)(=O)N1[C@H](C#N)[C@@H](c2ccc(-c3ccccc3F)cc2)[C@@H]1CO	.	.	.	6.4	-12.9	-1.3	.	.
12	COc1ccccc1-c1nnc(-c2ccc(N3CCOCC3)cc2)o1	-3.9	2.3	-0.1	.	1.3	26.0	.	.
13	COc1ccc(CCN(C)C(=O)CCc2nnc(-c3ccccc3)o2)cc1OC	-4.6	11.4*	-2.8	-1.5	.	15.2	13.2*	7.3*
14	Nc1ccccc1-c1nnc(-c2ccc(-c3ccccc3)cc2)o1	5.5	9.2*	10.9	.	-8.4	.	13.9*	11.1*
15	COc1ccc(-c2nnc(-c3ccccc3)o2)cc1OC	-4.5	8.4*	-2.3	-6.1	-10.9	10.0	6.4	11.7*
16	COc1ccccc1-c1nnc(-c2ccc(C)cc2)o1	-6.7	12.5*	21.1	0.7	-20.6	-1.6	7.0	7.1*
17	O=C(C[C@@H]1CC[C@H](NC(=O)c2ccc(F)cc2)[C@@H](CO)O1)NCc1ccncn1	.	.	.	-2.6	.	10.7	.	.
18	CC(=O)N(C)C[C@@H]1[C@H](c2ccc(-c3cccnc3)cc2)[C@H](CO)N1C(=O)C1CC1	.	.	.	-2.2	.	-4.3	.	.
19	C[C@@H]1CN([C@@H](C)CO)C(=O)c2cc(NC(=O)Nc3ccc4c(c3)OCO4)ccc2O[C@@H]1CN(C)S(=O)(=O)c1cccs1	.	.	.	-12.8	-11.4	0.6	.	.
20	CCN(CC)c1ccc2cc(-c3nc4ccccc4[nH]3)c(=O)oc2c1	.	.	4.1	.	-32.9	.	.	.
21	CCN(CC)c1ccc2cc(C(=O)c3cccs3)c(=O)oc2c1	6.9	8.3*	.	-1.0	0.1	-4.6	9.5*	1.3
22	COc1ccc(S(=O)(=O)N(C)C[C@H]2Oc3c(NC(=O)CCCCCC(=O)Nc4ccccc4N)cccc3C(=O)N([C@@H](C)CO)C[C@@H]2C)cc1	.	.	.	-3.4	.	-7.4	.	.

# Screening results: PubChem BioAssay, several laboratories
